Measurements as given in patent US20240066133A1, “THERAPEUTIC AGENTS AND CONJUGATES THEREOF” (Beijing Xuanyi PharmaSciences Co., Ltd., priority 2020, published 2024).
pEC50: −log10 of the molar value.

Amino acid sequences for entries named in this document (tags omitted).
UniProt Q86WV6, whole entry H232R: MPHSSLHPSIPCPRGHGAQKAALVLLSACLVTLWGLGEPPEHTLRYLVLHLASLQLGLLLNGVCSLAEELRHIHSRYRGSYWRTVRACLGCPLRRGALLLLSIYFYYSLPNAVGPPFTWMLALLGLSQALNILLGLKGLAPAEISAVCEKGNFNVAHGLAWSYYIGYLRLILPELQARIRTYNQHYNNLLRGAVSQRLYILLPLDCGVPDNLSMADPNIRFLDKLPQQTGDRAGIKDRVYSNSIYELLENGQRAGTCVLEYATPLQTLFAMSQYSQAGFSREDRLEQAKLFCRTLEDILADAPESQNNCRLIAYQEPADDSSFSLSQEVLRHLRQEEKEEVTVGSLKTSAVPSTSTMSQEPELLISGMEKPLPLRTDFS

Columns and labels:
[1] = molecular target: T1, Human STING (hSTING-R232) (Homo sapiens, UniProt Q86WV6, H232R); assay: Activation of human STING signaling in THP1-Dual KI-hSTING-R232 cells (IRF promoter, QUANTI-Luc); format: cell-based
T1 construct: host or cells: THP1-Dual KI-hSTING-R232 cells
Description: Activation of Human STING Signaling in THP1 Cell Line
The cells were treated with 20 μl/well of compounds at 8 concentrations in duplicate in 96-well plate, and incubate for 24 h. To measure IRF promoter activity, 15 μl of cell culture supernatant was mixed with 45 μl QUANTI-Luc in an opaque 96-well plate and immediately measured using Luminometer; to measure NF-κB promoter activity, 15 μl of supernatant was mixed with 90 μl QUANTI-Blue, and incubated at 37° C. for 90 minutes, and read at OD650 nm. EC50 was calculated by nonlinear regression fit with 4-parameter responsive curve fitting using GraphPad Version 8 software (Table 1).

[2] = molecular target: T2, hSTING R232 (Homo sapiens, UniProt Q86WV6, H232R); assay: IRF activation in 293T-Dual hSTING R232 cells (Quanti-Blue); format: cell-based
T2 construct: host or cells: 293T-Dual hSTING R232 cells
Description: A test compound with a serial of 1:3 dilution was prepared in complete medium, and 20 μL of the compound was added to the corresponding well, and incubated with the cells at 37° C. incubator for 24 hr.
To determine the effect on interferon regulatory factor (IRF) activation, 15 μL of cell culture supernatant was transferred into a fresh 96-half area-well plate, 90 μL of Quanti-Blue was added to each well and incubated at 37° C. for 90 min. OD at 650 nm was recorded. EC50 was calculated by nonlinear regression fit with 4-parameter responsive curve fitting using GraphPad Version 8 software (Table 2).

SMILES: BP1(=O)OC[C@H]2O[C@@H](n3cnc4c(N)ncnc43)[C@H](F)[C@@H]2O[P@@](=O)(SCc2ccc(OC(=O)c3ccc(OCCN=[N+]=[N-])cc3)cc2)OC[C@H]2O[C@@H](n3cnc4c(=O)[nH]c(N)nc43)[C@H](F)[C@@H]2O1 (stereo partly drawn) [Compound A3, ((2R,3R,3aR,7aR,9R,10R,10aR,12S,14aR)-2-(2-amino-6-oxo-1,6-dihydro-9H-purin-9-yl)-9-(6-amino-9H-purin-9-yl)-12-((4-((4-(2-azidoethoxy)benzoyl)oxy)benzyl)thio)-3,10-difluoro-5,12-dioxidooctahydro-2H,7H-difuro[3,2-d:3′,2′-j][1,3,7,9]tetraoxa[2,8]diphosphacyclododecin-5-yl)trihydroborate]
- pEC50 [1]: 8.70
- pEC50 [2]: 7.66

SMILES: [BH3-][P+]1(O)OC[C@H]2O[C@@H](n3cnc4c(N)ncnc43)[C@H](F)[C@@H]2O[P@@](=O)(SCc2ccc(OC(=O)CCCN=[N+]=[N-])cc2)OC[C@H]2O[C@@H](n3cnc4c(=O)[nH]c(N)nc43)[C@H](F)[C@@H]2O1 (stereo partly drawn) [Compound A2, ((2R,3R,3aR,7aR,9R,10R,10aR,12S,14aR)-2-(2-amino-6-oxo-1,6-dihydro-9H-purin-9-yl)-9-(6-amino-9H-purin-9-yl)-12-((4-((4-azidobutanoyl)oxy)benzyl)thio)-3,10-difluoro-5,12-dioxidooctahydro-2H,7H-difuro[3,2-d:3′,2′-j][1,3,7,9]tetraoxa[2,8]diphosphacyclododecin-5-yl)trihydroborate]
- pEC50 [1]: 7.27
- pEC50 [2]: 7.15
